These results are taken from PMC5271370, “A High-Content Assay Enables the Automated Screening and Identification of Small Molecules with Specific ALDH1A1-Inhibitory Activity” (PLoS ONE, 2017).

Chains of the proteins cited; added tags and fusions are not shown. Residues count along the entry.
UniProt P05091, 18-517 limits assumed: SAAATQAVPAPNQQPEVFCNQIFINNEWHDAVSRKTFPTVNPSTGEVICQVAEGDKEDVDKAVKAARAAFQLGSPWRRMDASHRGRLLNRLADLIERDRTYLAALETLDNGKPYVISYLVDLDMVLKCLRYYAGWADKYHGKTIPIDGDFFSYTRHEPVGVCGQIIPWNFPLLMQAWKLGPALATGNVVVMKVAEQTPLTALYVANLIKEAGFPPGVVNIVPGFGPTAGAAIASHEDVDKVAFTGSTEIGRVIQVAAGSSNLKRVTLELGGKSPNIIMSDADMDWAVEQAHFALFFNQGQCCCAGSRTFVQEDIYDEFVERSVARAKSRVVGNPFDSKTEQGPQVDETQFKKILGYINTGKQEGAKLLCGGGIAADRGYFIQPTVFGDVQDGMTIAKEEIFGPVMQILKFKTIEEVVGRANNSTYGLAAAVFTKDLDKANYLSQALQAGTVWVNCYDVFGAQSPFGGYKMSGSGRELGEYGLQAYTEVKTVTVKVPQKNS

Molecules are shown by their SMILES.

The subject of one experiment is ALDH2. The settings on record: read-out: Reported Biochemical IC50, ALDH2; reported ALDH target 2; cited from earlier work.
A further experiment concerns ALDH1A2. The note with it: read-out: Reported Biochemical IC50, ALDH1A2; reported ALDH target 1A2; cited from earlier work.
For a further experiment, the target named is Human ALDH2 (Homo sapiens, UniProt P05091). As to the kind of experiment: 1,536-well enzymatic assay (NADH fluorescence), ALDH2. The settings on record: read-out: Biochemical IC50 ALDH2; validation set; 75 nM enzyme, NAD+ and propionaldehyde.
The next experiment relates to ALDH1A3. The settings on record: read-out: Reported Biochemical IC50, ALDH1A3; reported ALDH target 1A3; cited from earlier work.
The next experiment relates to ALDH1A1. The note with it: read-out: Reported Biochemical IC50, ALDH1A1; reported ALDH target 1A1; cited from earlier work.
The subject of another experiment is LN-229 cells. As to the kind of experiment: 1,536-well high-content imaging ALDEFLUOR assay, LN-229. The note with it: fully automated assay, Fig 5.

In general, IC50 refers to the midpoint of a concentration-inhibition curve. As to `O=Cc1ccc(N2Cc3ccccc3C2)cc1`, the IC50 in the experiment on ALDH2 is 1700 nM; with ALDH1A2, 800 nM; on Human ALDH2, 2540 nM; with ALDH1A3 it was 1300 nM; in the experiment with ALDH1A1, 450 nM.
Regarding `CCC(SC1=Nc2ccccc2C2=NC(C(C)CC)C(=O)N12)C(=O)Nc1ccccc1C` (stereo not shown), the “Inhibition of BAAA turnover in LN-229 (ALDH1A1-negative cells)” value with LN-229 cells is reported as “inhibited BAAA turnover only in ALDH1A1-expressing cells”.
For `Cc1cc(N2Cc3ccccc3C2)ccc1C=O`, the IC50 in the experiment on ALDH1A2 was 210 nM; on Human ALDH2 it was 36400 nM; with ALDH1A3, 170 nM; with ALDH1A1, 220 nM.
